Results on three molecules are retold here after patent publication US20020107404A1, “Sulfur-containing indirubin derivatives, their production and use” (Schering AG, priority 2000, published 2002).

One assay deals with DU145. Put plainly: Proliferation assay, DU145. The note with it: read-out: DU145 IC50; comparison table; 4 days incubation, crystal violet.
Another assay concerns H460. The experiment in a line: Proliferation assay, H460. As to conditions: read-out: H460 IC50; comparison table; 4 days incubation, crystal violet.
A further assay has as its system HCT116. Put plainly: Proliferation assay, HCT116. The note with it: read-out: HCT116 IC50; comparison table; 4 days incubation, crystal violet.
Another assay concerns MCF-7. Put plainly: Proliferation assay, MCF-7. The note with it: read-out: MCF-7 IC50; comparison table; 4 days incubation, crystal violet.
In a further assay the target is CDK2/CycE (Homo sapiens, UniProt P24941). Put plainly: CDK2/CycE kinase assay. Type of assay: biochemical. As to conditions: read-out: CDK2 IC50; comparison table; recombinant CDK2/CycE, histone IIIS substrate, 0.5 μm ATP.

Where only a bound is given, the exact number is not on record here.

One may read the IC50 as the midpoint of a concentration-inhibition curve. Regarding `O=C1Nc2ccc(S(=O)(=O)O)cc2/C1=C1/Nc2ccccc2C1=O`, the IC50 in the assay on DU145, in the assay on H460, in the assay with HCT116 and in the assay on MCF-7 was greater than 10 µM throughout.

With `Cc1ccc2c(c1)/C(=C1/Nc3ccccc3C1=O)C(=O)N2`, the IC50 in the assay on DU145 is greater than 10 µM; in the assay with H460 it was greater than 10 µM; in the assay with HCT116 it was 10 µM; in the assay on MCF-7, 1 µM; at CDK2/CycE, 3 µM.

With `O=C1Nc2ccccc2/C1=C1/Nc2ccccc2C1=NO`, the values for the IC50 with MCF-7 and at CDK2/CycE were 6 µM and 0.9 µM, respectively.
